{
  "sequences": {"note": "By UniProt entry, the sequences of proteins in these tests, tags left out. Where a name states a change or a piece, a line headed by the entry shows the natural chain unless it says otherwise.", "UniProt O14684": "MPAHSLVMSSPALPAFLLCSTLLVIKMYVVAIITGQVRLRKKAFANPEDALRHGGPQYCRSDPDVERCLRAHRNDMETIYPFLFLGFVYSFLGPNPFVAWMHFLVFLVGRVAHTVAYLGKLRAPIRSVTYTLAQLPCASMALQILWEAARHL"},
  "source": "patent US8759537B2",
  "about": "“3H-imidazo [4, 5-C] pyridine-6-carboxamides as anti-inflammatory agents” (Boehringer Ingelheim International GmbH, priority 2010, dated 2014)",
  "key": {"mPGES-1 [1]": {"target": "T1, mPGES-1 (Homo sapiens (Human), UniProt O14684)", "test": "mPGES-1 enzyme assay (HTRF detection of PGE2)", "type": "biochemical", "settings": "recombinant human mPGES-1 microsomes, PGH2 2 μM; read-out: mPGES-1 inhibitory effect in the enzyme assay, IC50", "description": "Microsomes from Rosetta E. coli bacteria expressing recombinant human mPGES-1 can be derived as described below:\nInoculate 5 ml LB with Ampicilin (50 μg/ml) and Chloramphenicol (34 μg/ml) with bacteria from freeze culture. Incubate 8 h at 37° C. with 200 rpm. Thereafter, inoculate 500-1000 ml LB containing Amp and Chloro with the 5 ml on culture and grow to OD640 of 0.8-1.0. Chill the culture to +4° C. before induction. Induce the culture with IPTG at a final concentration of 400 μM. Express the protein at room temp 18-23° C. with 200 rpm shaking over night.\nThe following steps can be performed on the following day: • 1. […]\n47 μl of recombinant human mPGES-1 (˜0.5 μg protein/well) containing microsomal suspension in a buffer containing GSH, (2.5 mmol/L L-Glutathione reduced, dissolved in 0.1 mol/L Phosphat Buffer pH 7.4) is dispensed in a 384-well plate and thereafter 1 μl of the test compound(s) is/are added and incubated for 25 minutes at room temperature. […] In order to quantify the amount of PGE2 that has been formed, a homogenous time resolved fluorescent (HTRF) detecting of PGE2 has been performed using a commercially available kit from Cisbio according to the manufactures recommendation. […] After an incubation period of the plates over night, the fluorescence is measured by the use of an appropriate microplate reader. […]"}, "mPGES-1 [2]": {"target": "T1, mPGES-1", "test": "A549 cell-based assay (PGE2 formation, IL-1β stimulated, 50% human serum)", "settings": "A549 cells, IL-1β 5 ng/ml, read-out: mPGES-1 inhibitory effect in the cell assay, IC50", "description": "Although the enzymatic assay is a high throughput assay the disadvantage is that it uses a recombinant protein which is not in its natural environment. Accordingly a cellular assay was established in which a cell line of human origin (A549) expressing the mPGES-1 protein was used. In addition in order to mimic the situation in humans in which compounds can be bound to plasma proteins 50% human serum is added in the assay.\nCells were detached using Trypsin-EDTA. A549 cells were seeded in a 384-well collagene plate at a density of 7000 cells/well (50 μl) in F-12 medium containing 1% Penicillin-Streptomycin and 50% human serum. The cells were allowed to attach for 3-4 h. […] The total volume is 100 μl.\nConcentrations of PGE2 in the cell free medium (10 μl) were measured using a commercially available HTRF kit from Cisbio (as described above). The PGE2 formation in the absence of test compound was taken as 100%.\nIC50 values were derived from at 6-8 point titrations using conventional software."}},
  "data": [
    {"smiles": "Cn1c(Nc2c(Cl)ccc(CNC(=O)C(C)(C)C)c2Cl)nc2cc(C(=O)Nc3ccc(F)c(Cl)c3)c(F)cc21", "note": "[Example 17, N-(4-Fluoro-3-chloro-phenyl)-2-{2,6-dichloro-3-[(2,2-dimethyl-propionylamino)-methyl]-phenylamino}-6-fluoro-1-methyl-1H-benzimidazole-5-carboxylic acid amide]", "values": [
      {"measurement": "IC50", "setting": "mPGES-1 [1]", "result": 1, "unit": "nM"},
      {"measurement": "IC50", "setting": "mPGES-1 [2]", "result": 1, "unit": "nM"}
    ]}
  ]
}
